The conditions of data set [1]: cited from earlier work.
The next data set deals with T1, human B1 receptor (hB1) (Homo sapiens, UniProt P46663).
T1 sequence (P46663 1-353): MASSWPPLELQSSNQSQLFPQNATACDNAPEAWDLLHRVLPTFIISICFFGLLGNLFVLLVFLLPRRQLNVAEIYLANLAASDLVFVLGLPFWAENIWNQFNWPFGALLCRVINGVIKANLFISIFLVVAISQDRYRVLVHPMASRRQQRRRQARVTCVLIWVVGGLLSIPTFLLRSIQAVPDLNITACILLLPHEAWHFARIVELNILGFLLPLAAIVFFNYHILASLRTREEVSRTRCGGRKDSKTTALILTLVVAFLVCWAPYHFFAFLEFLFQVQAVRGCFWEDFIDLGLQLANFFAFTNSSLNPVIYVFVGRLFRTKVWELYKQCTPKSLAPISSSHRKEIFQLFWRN
In words: Binding affinity (Ki) at the human B1 receptor.

In the next data set the target is T2, human B1 receptor (Homo sapiens, UniProt P46663).
T2 construct: expressed in transfected cells
T2 sequence (P46663 1-353): T1 sequence (P46663 1-353)
In words: In vitro assay of human B1 receptor function using calcium flux (aequorin). The class given is cell-based. From the text: Activation of the Gq linked B1 receptor results in an increase in intracellular calcium. […] Aequorin is a 21-kDa photoprotein that forms a bioluminescent complex when linked to the chromophore cofactor coelenterazine.
A general note: Calcium flux is commonly read through the fluorescence of an indicator in the cells.

The nature of data set [2]: Rat pharmacokinetic studies. The class given is in vivo, male Sprague-Dawley rats. The procedure: Various peptides or conjugated peptides (in an aqueous medium) were dosed as a bolus to male Sprague-Dawley rats via an intravenous (iv) or subcutaneous (sc) route. Blood samples were collected at various time points (e.g., 0, 15, 30 minutes and/or 1, 2, 4, 6, 8, 10, 12, 18, 24, 30, 36, 42, 48, 60, 72, 84, 96, 120, 240, and/or 320 hours after the injection) into heparized tubes. Plasma was removed from pelleted cells upon centrifugation and either frozen or immediately processed. The compound of interest in the plasma was quantitated by an analyte-specific LC-MS/MS or an ELISA method. Various standard pharmacokinetic parameters such as clearance (CL), apparent clearance (CL/F), volume of distribution (Vss), mean residence time (MRT), area under the curve (AUC), and terminal half-life (t1/2) were calculated by non-compartmental method (for example, see Table 9).

Where [3] appears, read: Table 8, functional potency, read-out: hB1 IC50.
Where [4] appears, read: hB1 aequorin assay, text values (n=8, n=9), read-out: IC50 at the hB1 receptor.

Read-outs that look alike come from different tables or passages of the source. Marks after values point to notes of the source that are not given here.

As for “Arg Pro Pro Gly Phe Ser Pro Phe Arg [BK]”, the half-life in plasma result in data set [1] was “approximately 17 seconds”.
As usually defined, the Ki is a dissociation constant, usually derived from enzyme kinetics or from competition with a known ligand. The term IC50 denotes the concentration that gives 50% inhibition. “D-Lys D-2-Nal Arg Pro Hyp Gly Cpg Ser DTic Cpg [SEQ ID NO: 49]” returned an inhibitory constant (Ki) on human B1 receptor (hB1) of 0.77 nM. At human B1 receptor (setting [3]), the half-maximal inhibitory concentration (IC50) came out at 0.5 nM. Moreover, in data set [2] (3 mpk iv), the t1/2 is 1.0^i h.
As to “DLys Lys Arg Pro Hyp Gly Cpg Ser DTic Cpg [SEQ ID NO: 22]”, the affinity on human B1 receptor (hB1), expressed as Ki, was 0.38 nM. Also, the IC50 at human B1 receptor (setting [3]) came to 2 nM. The t1/2 in data set [2] (3 mpk iv) was 1.0^i h.
At human B1 receptor (hB1), “DOrn Lys Arg Pro Hyp Gly Cpg Ser DTic Cpg [SEQ ID NO: 15]” returned a Ki of 0.19 nM. In addition, the 50% inhibitory concentration (IC50) at human B1 receptor (setting [3]) is 1 nM. Also, the t1/2 in data set [2] (1 mpk sc) is on record as 2.76^c h.
With “Lys D-2-Nal Arg Pro Hyp Gly Cpg Ser DTic Cpg [SEQ ID NO: 50]”, the inhibition constant (Ki) at human B1 receptor (hB1) came out at 0.2 nM. In addition, the IC50 at human B1 receptor (setting [3]) was determined as 6 nM. In data set [2] (3 mpk iv), the t1/2 is 2.0^i h.
“Lys Lys Arg Pro Hyp Gly Cpg Ser DTic Cpg [SEQ ID NO: 13, reference compound]” had an inhibitory constant (Ki) at human B1 receptor (hB1) of 0.1 nM. For the same substance, the 50% inhibitory concentration (IC50) on human B1 receptor (setting [3]) is 0.5 nM; on human B1 receptor (setting [4]), 3 nM. Further, the results for the t1/2 in data set [2] (1 mpk iv) and in data set [2] (30 mpk sc) were 0.6^h and 1.2^g h, respectively.
In turn, “acyl-KKRP[Hyp]G[Cpg]S[DTic]Cpg] [SEQ ID NO: 37]” came in with a Ki at human B1 receptor (hB1) of 0.8 nM. Besides, the figures for the IC50 on human B1 receptor (setting [3]) and at human B1 receptor (setting [4]) were 1 nM and 3.2 nM, respectively. In addition, the values for the t1/2 in data set [2] (3 mpk iv) and in data set [2] (30 mpk sc) were 0.4^i h and 0.6^g h, respectively.

Values taken from patent publication US8278280B2, “Antagonists of the bradykinin B1 receptor” (priority 2003, dated 2012).
